Data on one molecule can be found in PubChem BioAssay AID588351 (The Scripps Research Institute Molecular Screening Center, 2011).

The list shows a part of the results, in another mix than the full data. Calls of active or inactive are those of the source.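 How the source made its calls: active means mean activation above a set limit taken from the primary screen (cut at about 8% in these data); inactive means the rest.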

The nature of the assay: FXN GAA850 promoter activators in reporter cells, confirmation, cell-based, luminescence, HEK293 lucGAA850, triplicate (AID 588351).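 Further: 0% = DMSO wells and 100% = 10 µM SAHA wells.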 To be noted: HEK293 lucGAA850 FXN promoter luciferase reporter, 24 h; at 6 µM; stronger effect = higher value; 100% = activation by SAHA.
Take `O=[N+]([O-])c1cc([N+](=O)[O-])c(NCC2CCS(=O)(=O)C2)c([N+](=O)[O-])c1` (stereo unspecified): the activation is active: 26.9%.
